Test system: NCI-Adr resistant
Assay: SRB cytotoxicity, P-glycoprotein expressing cells with and without verapamil
Assay type: cell-based
Conditions: ratio of mean IC50
Method: In these experiments, the P-glycoprotein expressing NCI-Adr resistant subline (Vickers et al., 1989. Mol Endocrinology 3 (1):157-164) was used. […] Briefly, cells were plated in 96 well dishes 24 hours prior to compound addition. Where noted, they were exposed to verapamil for 4 hours prior to compound addition and then throughout the treatment period (72 hours). […] The plates were then washed 5 times with water and 100 μl of a Sulforhodamine B solution (4%) was added to each well. The plate was then incubated for 10 minutes at room temperature before removal of unbound dye by washing with 1% acetic acid.

`CC(=O)O[C@@]12CO[C@@H]1C[C@H](O)[C@@]1(C)C(=O)[C@H](O)C3=C(C)[C@@H](OC(=O)[C@H](O)[C@@H](NC(=O)OC(C)(C)C)c4ccccc4)C[C@@](O)([C@@H](OC(=O)c4ccccc4)[C@H]21)C3(C)C` [Taxotere, N-debenzoyl-N-tert-butoxycarbonyl-10-deacetyl paclitaxel, reference compound] was tested, and the “RR (relative resistance) NCI-Adr resistant −/+ verapamil” value was 91.2.

— patent US20080146555A1, “Uses of Kinase Inhibitors and Compositions Thereof” (GPC Biotech, Inc, priority 2004, published 2008)
